In PMC2363545 (British Journal of Cancer, 2000):
Where “and” joins values, the source holds several entries; their conditions need not be identical. Equal values may be shown once.

Protein sequences, listed by entry. Tags and fused reporters are not part of them. Lines headed by an entry give the natural chain unless they say otherwise; changes in a name come on top.
UniProt P41440: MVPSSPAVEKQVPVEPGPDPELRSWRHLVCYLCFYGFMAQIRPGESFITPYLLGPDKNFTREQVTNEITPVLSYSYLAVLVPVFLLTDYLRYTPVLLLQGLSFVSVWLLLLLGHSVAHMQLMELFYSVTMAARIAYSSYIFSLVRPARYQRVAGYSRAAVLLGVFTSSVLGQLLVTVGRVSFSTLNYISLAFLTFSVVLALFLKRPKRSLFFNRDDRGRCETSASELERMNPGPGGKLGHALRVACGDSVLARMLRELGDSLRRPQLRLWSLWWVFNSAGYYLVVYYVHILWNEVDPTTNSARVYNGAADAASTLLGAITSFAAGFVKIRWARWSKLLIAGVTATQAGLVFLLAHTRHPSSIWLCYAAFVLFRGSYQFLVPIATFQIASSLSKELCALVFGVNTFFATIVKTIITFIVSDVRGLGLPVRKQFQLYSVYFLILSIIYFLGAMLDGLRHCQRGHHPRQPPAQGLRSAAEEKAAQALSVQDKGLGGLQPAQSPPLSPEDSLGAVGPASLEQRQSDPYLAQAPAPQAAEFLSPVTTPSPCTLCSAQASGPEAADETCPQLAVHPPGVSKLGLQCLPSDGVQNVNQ

Key:
breast cancer cell lines [1] = test system: breast cancer cell lines
metastatic melanoma (MM) = conditions: in vivo
[2] = test system: platinum-resistant epithelial ovarian carcinoma; conditions: in vivo
H69 SCLC xenografts = conditions: mouse, in vivo
[3] = in vivo; cited from earlier work
[4] = target: reduced-folate carrier (RFC) (Homo sapiens, UniProt P41440); conditions: read-out: Km for the RFC
HUVECs [5] = test system: HUVECs
HUVECs [6] = test system: HUVECs; remark: listed apart in the source
[7] = test system: PC-3 human prostate tumours; conditions: mouse, in vivo
[8] = test system: LTR Ras3, Melan-a, MT1.2 and B16F10 cell lines
breast cancer cell lines [9] = conditions: cited from earlier work

SMILES: CCc1cc2c(cc1OS(N)(=O)=O)CCC1C2CCC2(C)C(=O)CCC12 (stereo not shown) [2-EtEMATE, 2-Ethylestrone-3-O-Sulfamate]
- fold more potent than parent compounds (breast cancer cell lines [1]): > 10 fold
- effect on tubulin assembly (tubulin): inhibited the ability of paclitaxel to promote tubulin assembly

SMILES: O=C1CCC(N2C(=O)c3ccccc3C2=O)C(=O)N1 (stereo not shown) [Thalidomide]
- objective responses (metastatic melanoma (MM)): no objective responses

SMILES: CC(=O)O[C@H]1C(=O)[C@@]2(C)[C@H]([C@H](OC(=O)c3ccccc3)[C@]3(O)C[C@H](OC(=O)[C@H](O)[C@@H](NC(=O)c4ccccc4)c4ccccc4)C(C)=C1C3(C)C)[C@]1(OC(C)=O)CO[C@@H]1C[C@@H]2O [TOL]
- partial responses [2]: 22.5%

SMILES: CC[C@@]1(O)C(=O)OCc2c1cc1n(c2=O)Cc2cc3c(CN(C)C)c(O)ccc3nc2-1 [topotecan]
- tumour response (H69 SCLC xenografts): only slowed the tumour growth rate

SMILES: C[C@@H]1CN(CCCn2c3ccccc3c3ccccc32)C[C@H](C)N1 [rimcazole]
- cell death induction (tumour cell lines): induce programmed cell death

SMILES: CCCCS(=N)(=O)CCC(N)C(=O)O (stereo not shown) [BSO, buthionine sulfoximine]
- peak plasma levels [3]: 3,000-8,000 M

SMILES: C#CCN(Cc1ccc2nc(N)[nH]c(=O)c2c1)c1ccc(C(=O)NC(CCC(=O)O)C(=O)O)cc1 (stereo not shown) [CB3717]
- Km [4]: 43 µM

SMILES: COc1cc2c(c(OC)c1OC)-c1ccc(OP(=O)(O)O)cc1[C@@H](NC(C)=O)CC2 [ZD6126]
- concentrations at which toxicity/antiproliferative effects occur (HUVECs [5]): > 100 M
- increased permeability of cell monolayers (HUVECs [6]): 20-30%

SMILES: COc1cc2c(Nc3ccc(Br)cc3F)ncnc2cc1OCC1CCN(C)CC1 [ZD6474]
- tumour volume after re-treatment [7]: ~ 0.2 cm3

SMILES: Cc1nc2ccc(CN(C)c3ccc(C(=O)N[C@@H](CCC(=O)O)C(=O)O)s3)cc2c(=O)[nH]1 [RTX]
- Km [4]: 1 to 2 µM

SMILES: CC(C)CC[C@@H](O)[C@](C)(O)[C@H]1CC[C@@]2(O)C3=CC(=O)[C@]4(O)C[C@@H](O)[C@@H](O)C[C@]4(C)[C@H]3[C@H](O)C[C@]12C [MA, Muristerone A]
- TPMT activity at optimal induction (TPMT): 2.7 nmol/hr/mg of protein

SMILES: O=c1cc(N2CCOCC2)oc2c(-c3ccccc3)cccc12 [LY294002]
- S-phase fraction (MT1.2): 84 % of the control value and 43 % of the control value
- rate of migration [8]: 9.8 m/hr and 11.8 m/hr and 10.3 m/hr

SMILES: COc1cc2c(cc1O)CC[C@@H]1[C@@H]2CC[C@]2(C)C(=O)CC[C@@H]12 [2-MeOE1, 2-Methoxyestrone]
- G2/M arrest in breast cancer cells in vitro (breast cancer cell lines [9]): did not
